From patent publication US11524937B2, “Indirubin derivatives, and uses thereof” (CITY OF HOPE, priority 2012, dated 2022)
pIC50: −log10 of the molar value.

Chains of the proteins cited; added tags and fusions are not shown. Residues count along the entry.
UniProt P07948, whole entry: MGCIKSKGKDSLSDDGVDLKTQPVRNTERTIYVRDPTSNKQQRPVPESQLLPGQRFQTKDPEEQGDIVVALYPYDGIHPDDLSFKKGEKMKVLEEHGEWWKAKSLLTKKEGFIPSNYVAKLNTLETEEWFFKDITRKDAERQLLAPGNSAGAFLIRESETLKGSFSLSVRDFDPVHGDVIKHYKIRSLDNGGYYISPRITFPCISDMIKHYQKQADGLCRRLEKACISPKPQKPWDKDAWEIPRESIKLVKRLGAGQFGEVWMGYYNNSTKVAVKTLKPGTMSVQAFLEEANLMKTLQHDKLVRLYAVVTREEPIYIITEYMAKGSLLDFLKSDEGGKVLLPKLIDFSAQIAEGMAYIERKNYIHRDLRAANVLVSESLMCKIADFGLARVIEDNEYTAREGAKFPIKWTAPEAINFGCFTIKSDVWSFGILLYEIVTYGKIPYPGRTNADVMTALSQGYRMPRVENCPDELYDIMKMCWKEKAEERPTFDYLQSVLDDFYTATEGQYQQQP
UniProt P36888, 27-993 limits assumed: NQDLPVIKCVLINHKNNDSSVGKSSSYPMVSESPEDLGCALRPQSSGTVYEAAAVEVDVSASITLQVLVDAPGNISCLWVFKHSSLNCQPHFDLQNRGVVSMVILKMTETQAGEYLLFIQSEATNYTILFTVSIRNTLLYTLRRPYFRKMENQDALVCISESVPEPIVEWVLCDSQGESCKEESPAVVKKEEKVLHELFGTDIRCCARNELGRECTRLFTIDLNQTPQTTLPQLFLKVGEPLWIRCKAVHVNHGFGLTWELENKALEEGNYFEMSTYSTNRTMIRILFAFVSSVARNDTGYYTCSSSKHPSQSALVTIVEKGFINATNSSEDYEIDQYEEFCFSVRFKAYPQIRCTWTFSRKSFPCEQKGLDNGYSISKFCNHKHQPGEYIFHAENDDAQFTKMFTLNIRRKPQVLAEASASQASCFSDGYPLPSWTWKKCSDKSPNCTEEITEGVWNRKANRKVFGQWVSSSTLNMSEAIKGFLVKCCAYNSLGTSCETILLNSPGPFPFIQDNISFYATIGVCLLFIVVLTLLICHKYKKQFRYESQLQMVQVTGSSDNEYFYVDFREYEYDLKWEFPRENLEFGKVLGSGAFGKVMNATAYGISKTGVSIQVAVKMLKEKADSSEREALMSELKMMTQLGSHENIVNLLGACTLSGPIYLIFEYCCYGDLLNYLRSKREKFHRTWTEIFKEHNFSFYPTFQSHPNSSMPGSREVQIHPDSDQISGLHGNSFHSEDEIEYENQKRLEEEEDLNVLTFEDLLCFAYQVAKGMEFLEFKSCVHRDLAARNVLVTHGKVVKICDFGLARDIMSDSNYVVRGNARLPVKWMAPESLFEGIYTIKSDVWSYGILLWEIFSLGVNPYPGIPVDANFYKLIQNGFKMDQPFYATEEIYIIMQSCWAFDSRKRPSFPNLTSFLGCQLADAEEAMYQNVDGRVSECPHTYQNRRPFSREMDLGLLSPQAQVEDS
UniProt P06241, whole entry: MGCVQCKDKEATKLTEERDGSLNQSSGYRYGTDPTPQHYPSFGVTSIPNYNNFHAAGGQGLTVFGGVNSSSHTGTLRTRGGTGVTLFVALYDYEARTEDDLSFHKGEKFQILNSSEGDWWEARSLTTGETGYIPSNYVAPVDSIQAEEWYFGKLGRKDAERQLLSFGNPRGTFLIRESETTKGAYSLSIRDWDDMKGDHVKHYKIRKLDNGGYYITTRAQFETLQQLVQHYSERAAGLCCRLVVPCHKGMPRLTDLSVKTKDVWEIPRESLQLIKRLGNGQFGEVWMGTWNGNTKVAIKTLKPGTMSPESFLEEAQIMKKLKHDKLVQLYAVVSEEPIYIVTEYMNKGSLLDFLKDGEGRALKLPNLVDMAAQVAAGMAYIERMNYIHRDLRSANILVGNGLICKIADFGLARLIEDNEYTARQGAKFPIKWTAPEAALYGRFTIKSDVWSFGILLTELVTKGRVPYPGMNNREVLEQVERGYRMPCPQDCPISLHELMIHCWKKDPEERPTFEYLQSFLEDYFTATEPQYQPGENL
UniProt P09769, whole entry: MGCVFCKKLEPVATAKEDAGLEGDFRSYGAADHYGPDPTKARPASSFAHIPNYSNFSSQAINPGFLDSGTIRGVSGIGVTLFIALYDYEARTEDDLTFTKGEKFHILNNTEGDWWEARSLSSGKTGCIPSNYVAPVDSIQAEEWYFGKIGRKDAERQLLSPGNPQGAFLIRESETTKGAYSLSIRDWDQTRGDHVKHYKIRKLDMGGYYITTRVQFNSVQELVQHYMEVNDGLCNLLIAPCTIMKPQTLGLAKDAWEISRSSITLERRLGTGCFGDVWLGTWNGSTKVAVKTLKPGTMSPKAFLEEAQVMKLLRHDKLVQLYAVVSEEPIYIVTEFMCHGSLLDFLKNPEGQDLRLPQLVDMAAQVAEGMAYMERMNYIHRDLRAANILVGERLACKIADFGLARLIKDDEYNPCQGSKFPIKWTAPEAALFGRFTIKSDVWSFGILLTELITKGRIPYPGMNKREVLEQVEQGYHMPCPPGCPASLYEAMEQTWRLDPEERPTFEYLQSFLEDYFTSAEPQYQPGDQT
UniProt P08631, whole entry: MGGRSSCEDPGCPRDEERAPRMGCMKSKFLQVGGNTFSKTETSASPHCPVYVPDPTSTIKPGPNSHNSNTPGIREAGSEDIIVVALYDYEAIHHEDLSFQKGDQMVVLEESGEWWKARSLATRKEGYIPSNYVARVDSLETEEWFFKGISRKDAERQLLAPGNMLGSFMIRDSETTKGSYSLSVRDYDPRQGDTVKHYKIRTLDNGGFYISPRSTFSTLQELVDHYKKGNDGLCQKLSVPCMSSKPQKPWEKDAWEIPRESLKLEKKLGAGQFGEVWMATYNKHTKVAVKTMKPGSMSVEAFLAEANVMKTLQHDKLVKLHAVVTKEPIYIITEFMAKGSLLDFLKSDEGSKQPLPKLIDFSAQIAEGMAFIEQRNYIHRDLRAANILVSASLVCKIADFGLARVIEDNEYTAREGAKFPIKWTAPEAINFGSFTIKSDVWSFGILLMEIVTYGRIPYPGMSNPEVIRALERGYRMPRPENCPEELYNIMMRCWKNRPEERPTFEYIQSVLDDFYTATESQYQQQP
UniProt P29597, whole entry: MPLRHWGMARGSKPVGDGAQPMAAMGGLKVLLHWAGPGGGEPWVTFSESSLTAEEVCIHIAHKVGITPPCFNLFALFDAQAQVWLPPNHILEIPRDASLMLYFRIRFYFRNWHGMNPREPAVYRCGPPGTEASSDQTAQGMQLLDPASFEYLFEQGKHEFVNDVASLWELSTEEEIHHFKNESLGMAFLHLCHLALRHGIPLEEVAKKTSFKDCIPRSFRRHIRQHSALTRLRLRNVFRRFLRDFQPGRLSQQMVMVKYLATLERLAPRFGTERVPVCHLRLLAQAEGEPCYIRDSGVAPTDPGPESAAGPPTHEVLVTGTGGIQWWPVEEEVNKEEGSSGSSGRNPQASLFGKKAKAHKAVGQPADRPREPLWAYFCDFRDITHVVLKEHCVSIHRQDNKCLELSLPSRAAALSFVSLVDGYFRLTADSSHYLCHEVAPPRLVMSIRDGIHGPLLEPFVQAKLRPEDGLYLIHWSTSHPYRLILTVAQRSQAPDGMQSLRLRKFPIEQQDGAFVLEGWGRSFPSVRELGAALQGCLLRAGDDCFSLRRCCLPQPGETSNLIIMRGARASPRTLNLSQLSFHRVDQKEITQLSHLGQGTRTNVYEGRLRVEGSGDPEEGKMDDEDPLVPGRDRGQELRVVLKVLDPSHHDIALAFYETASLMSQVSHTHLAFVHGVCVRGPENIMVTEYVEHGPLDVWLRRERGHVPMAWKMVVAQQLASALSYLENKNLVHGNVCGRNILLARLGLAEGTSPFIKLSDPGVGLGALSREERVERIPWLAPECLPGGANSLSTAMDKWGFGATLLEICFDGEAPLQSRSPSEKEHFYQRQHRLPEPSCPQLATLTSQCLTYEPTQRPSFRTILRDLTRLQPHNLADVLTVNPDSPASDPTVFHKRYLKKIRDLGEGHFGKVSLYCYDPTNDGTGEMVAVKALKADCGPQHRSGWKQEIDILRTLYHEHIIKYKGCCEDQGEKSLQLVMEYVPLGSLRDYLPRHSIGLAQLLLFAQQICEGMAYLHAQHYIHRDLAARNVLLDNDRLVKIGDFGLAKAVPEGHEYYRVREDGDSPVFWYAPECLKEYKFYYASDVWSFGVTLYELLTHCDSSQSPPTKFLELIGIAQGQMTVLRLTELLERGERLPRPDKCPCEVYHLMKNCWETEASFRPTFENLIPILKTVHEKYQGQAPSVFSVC
UniProt P49841, whole entry: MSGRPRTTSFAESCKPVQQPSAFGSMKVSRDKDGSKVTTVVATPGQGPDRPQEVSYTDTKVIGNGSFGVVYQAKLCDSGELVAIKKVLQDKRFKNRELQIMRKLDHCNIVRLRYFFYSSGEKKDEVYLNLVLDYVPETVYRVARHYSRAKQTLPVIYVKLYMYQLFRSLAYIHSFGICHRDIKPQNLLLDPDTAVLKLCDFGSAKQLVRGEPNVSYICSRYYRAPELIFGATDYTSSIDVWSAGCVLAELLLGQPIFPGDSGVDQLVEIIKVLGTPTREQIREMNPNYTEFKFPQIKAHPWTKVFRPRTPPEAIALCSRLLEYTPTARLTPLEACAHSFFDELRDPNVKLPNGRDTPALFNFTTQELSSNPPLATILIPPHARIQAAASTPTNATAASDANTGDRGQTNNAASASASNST

Tests used:
[1] = molecular target: LYN (Homo sapiens, UniProt P07948); test: in vitro kinase assay, recombinant LYN
[2] = test system: p-SFKs in SKOV3 ovarian cancer cells; test: Western blot p-SFKs, SKOV3 cells; settings: SKOV3, 4 hours
[3] = test system: p-Jak2 in PaCa2 pancreatic cancer cells; test: Western blot p-Jak2, PaCa2 cells; settings: PaCa2, 0.5 μM, 4 hours
[4] = molecular target: FLT3 (Homo sapiens, UniProt P36888); test: in vitro kinase assay, recombinant FLT3
[5] = test system: p-Stat3 in SKOV3 ovarian cancer cells; test: Western blot p-Stat3, SKOV3 cells; settings: SKOV3, 0.5 μM, 4 hours
[6] = molecular target: FYN (Homo sapiens, UniProt P06241); test: in vitro kinase assay, recombinant FYN
[7] = molecular target: FGR (Homo sapiens, UniProt P09769); test: in vitro kinase assay, recombinant FGR
[8] = test system: p-Jak2 in SKOV3 ovarian cancer cells; test: Western blot p-Jak2, SKOV3 cells; settings: SKOV3, 0.5 μM, 4 hours
[9] = test system: p-Stat3 in PaCa2 pancreatic cancer cells; test: Western blot p-Stat3, PaCa2 cells; settings: PaCa2, 0.5 μM, 4 hours
[10] = molecular target: HCK (Homo sapiens, UniProt P08631); test: in vitro kinase assay, recombinant HCK
[11] = molecular target: CDK2/cyclin A (Homo sapiens, UniProt P24941); test: in vitro kinase assay, recombinant CDK2/cyclin A
[12] = molecular target: TYK2 (Homo sapiens, UniProt P29597); test: in vitro kinase assay, recombinant TYK2
[13] = test system: p-Stat5 in MV4-11 AML cells; test: Western blot p-Stat5, MV4-11 AML cells
[14] = molecular target: GSK3β (Homo sapiens, UniProt P49841); test: in vitro kinase assay, recombinant GSK3β

pIC50 [1]: ≥ 5.92
FLT3 kinase activity ([4]; FIG. 16A): inhibition
pIC50 ([4]; FLT3): ≥ 5.92
pIC50 [6]: ≥ 5.92
pIC50 [7]: ≥ 5.92
pIC50 [10]: ≥ 5.92
pIC50 [11]: ≥ 5.92
pIC50 [12]: ≥ 5.92
pIC50 [14]: ≥ 5.92
SMILES: COC(=O)c1ccc2c(c1)C(=NO)C(=C1C(=O)Nc3cc(Br)ccc31)N2
levels of p-SFKs [2]: Reduced
phosphorylation of Jak2 [3]: substantially inhibited
phosphorylation of Stat3 [5]: substantially inhibited
phosphorylation of Jak2 [8]: substantially inhibited
phosphorylation of Stat3 [9]: substantially inhibited
phosphorylation of Stat5 ([13]; 0.5 μM, 4 hours): substantially inhibited
levels of p-Stat5 ([13]; at a low concentration): significantly reduced
